The text below walks through data of patent EP4834882A1, “ALDOSTERONE SYNTHETASE INHIBITOR, AND PREPARATION METHOD THEREFOR AND USE THEREOF” (dated 2026).

Sequences of proteins named here, by UniProt entry; tags and fusion partners are left off. Residues count along the entry.
UniProt P19099, 25-503 limits assumed: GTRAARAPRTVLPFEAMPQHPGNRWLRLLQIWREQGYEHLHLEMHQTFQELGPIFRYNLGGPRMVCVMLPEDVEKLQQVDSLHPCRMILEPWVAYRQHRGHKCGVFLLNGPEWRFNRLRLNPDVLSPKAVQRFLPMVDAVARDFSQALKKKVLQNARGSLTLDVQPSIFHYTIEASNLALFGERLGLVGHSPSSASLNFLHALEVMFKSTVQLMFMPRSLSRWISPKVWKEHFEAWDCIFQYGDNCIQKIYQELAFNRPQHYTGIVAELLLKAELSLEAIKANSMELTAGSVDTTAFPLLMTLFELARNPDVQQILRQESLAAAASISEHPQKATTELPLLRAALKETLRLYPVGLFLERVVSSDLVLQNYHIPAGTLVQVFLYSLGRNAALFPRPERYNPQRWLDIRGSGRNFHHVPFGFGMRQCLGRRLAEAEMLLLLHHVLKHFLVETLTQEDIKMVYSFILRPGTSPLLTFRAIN
UniProt P15538, 25-503 limits assumed: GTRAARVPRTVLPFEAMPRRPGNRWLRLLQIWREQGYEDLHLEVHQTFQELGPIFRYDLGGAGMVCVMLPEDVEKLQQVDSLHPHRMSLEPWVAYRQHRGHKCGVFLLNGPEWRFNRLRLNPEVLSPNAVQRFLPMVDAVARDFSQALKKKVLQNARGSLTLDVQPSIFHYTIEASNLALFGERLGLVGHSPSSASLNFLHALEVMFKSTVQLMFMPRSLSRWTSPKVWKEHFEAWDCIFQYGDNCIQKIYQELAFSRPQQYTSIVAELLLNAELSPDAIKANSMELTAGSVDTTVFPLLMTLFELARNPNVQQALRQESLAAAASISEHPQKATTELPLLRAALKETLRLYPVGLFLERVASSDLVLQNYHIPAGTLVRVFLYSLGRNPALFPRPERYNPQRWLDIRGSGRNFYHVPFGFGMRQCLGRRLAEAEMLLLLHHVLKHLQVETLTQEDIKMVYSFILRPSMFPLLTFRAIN

For one data set, the target named is human CYP11B2 (Homo sapiens, UniProt P19099). In words: H295R steroidogenesis assay, inhibition of aldosterone synthase. To be noted: read-out: CYP11B2 Ki; NCI-H295R cells, 10 µM deoxycorticosterone, 48 h, aldosterone by LC-MS; Ki = IC50/(1 + [S]/Km). The method, then:
(§1) The H295R steroidogenesis assay system was used in the present invention for testing the enzyme activities of human CYP11B1, human CYP11B2, etc. The in vitro H295R steroidogenesis assay system utilizes a human adrenocortical carcinoma cell line (NCI-H295R cells) as a Tier 2 "in vitro assay that provides mechanistic data" for screening and prioritization purposes. The development and standardization of this method were performed in a multi-step process for screening chemical effects on steroidogenesis, and the H295R assay method has been optimized and validated according to the OECD Test Guideline (Test Guideline No. 456 H295R Steroidogenesis Assay).
(§2) NCI-H295R cells were purchased from ATCC. After initiating culture from the original ATCC batch, NCI-H295R cells were cultured for five passages (i.e., undergo four rounds of cell divisions), and then the cells at passage five were cryopreserved and stored in liquid nitrogen.
(§3) H295R cells were cultured in a cell culture incubator at 37°C and 5% CO2, and the medium was replaced 2-3 times per week. Cells were passaged when they reached approximately 85-90% confluency. The medium was aspirated, and the cells were washed three times with DPBS (Ca^2+ and Mg^2+ -free), and then trypsin was added to digest for 1-3 min. The digestion was terminated by adding 3 mL of culture medium. The cells were then dislodged by pipetting, and any remaining cells were rinsed off with 1 mL of medium. The cell suspension was pooled and transferred to a 15 mL centrifuge tube. After centrifuging at room temperature and 800 rpm for 5 min, the supernatant was discarded, the pellet was resuspended in 3 mL of medium, and the cell suspension was counted. The edge wells of a 96-well plate are left empty, and the remaining wells are seeded with 50,000 cells per well in 100 µL of 10% FBS DMEM/F12 (1:1) basal medium..After overnight recovery, the medium was replaced with basal medium containing 10 µM Forskolin (150 µL per well), and the cells were incubated for 48 h. After 48 h, the medium was replaced with basal medium containing 10 µM deoxycorticosterone. The compound was dissolved in DMSO to prepare a 100 mM stock solution. Starting from 100 mM, the compounds are subjected to 3-fold serial dilutions in DMSO, resulting in 10 concentration points. These 10 concentration points was then diluted 10-fold with blank DMEM:F12 (1:1) medium, resulting in a starting concentration of 10 mM. An aliquot of 1.5 µL of each compound concentration was added to the cells, achieving a final DMSO concentration of 0.1% and a starting compound concentration of 100 µM. After incubation for 48 h, 40 µL of cell supernatant was collected and analyzed for the levels of aldosterone and cortisol by LC-MS.
(§4) The inhibition rate was calculated using the following formula: [formula]
(§5) Using the logarithm of the compound concentration as the x-axis and the inhibition rate as the y-axis. Nonlinear regression curve fitting was performed using Graphpad 9.0 to calculate the IC50 value (Y=Bottom+(Top - Bottom)/(1+ 10^((LogIC50 - X)×HillSlope))), Ki = IC50/(1 + [S]/Km), and the test results are shown in Table 1. Unless otherwise specified, competitive inhibition is assumed for all proteases. Selectivity = CYP11B1 Ki (nM)/CYP11B2 Ki (nM); wherein, A represents a selectivity value between 0 and 50, B represents a selectivity value between 51 and 100, C represents a selectivity value between 101 and 150, and D represents a selectivity value above 151. Table 1: Inhibitory effect of compounds on CYP11B2

The target of the next data set is human CYP11B1 (Homo sapiens, UniProt P15538). In words: H295R steroidogenesis assay, selectivity CYP11B1 versus CYP11B2. The settings on record: Selectivity = CYP11B1 Ki (nM)/CYP11B2 Ki (nM); NCI-H295R cells. The method, then: as §1, §2, §3, §4, §5
A short description of data set [1]: Rat pharmacokinetic study. The settings on record: SD rats. An excerpt:
• SD rats: male, 180-250g, purchased from Beijing Vital River Laboratory Animal Technology Co., Ltd. • Reagents: DMSO (dimethyl sulfoxide), PEG-400 (polyethylene glycol 400), saline, heparin, acetonitrile, formic acid, and propranolol (internal standard) are all commercially available. Instrument: AB SCIEX QTRAP 5500+.
The compounds of Examples 1-49 of the present invention were weighed and dissolved in a DMSO-PEG-400-saline (5:60:35, v/v/v) system. Following intravenous or intragastric administration to rats, venous blood samples (200 µL) were collected into EDTA-K2 anticoagulant tubes at the following time points: 15 min, 30 min, 1 h, 2 h, 5 h, 7h, and 24 h (with an additional 5-min time point for the i.v. group). The samples were centrifuged at 12,000 rpm for 2 minutes, and the obtained plasma was stored at -80°C until analysis. A certain amount of the test sample was accurately weighed and dissolved in DMSO to 2 mg/mL as a stock solution. An appropriate amount of the stock solution of each test compound was accurately pipetted and diluted with acetonitrile to prepare a series of standard solutions. 10 µL of each of the above series of standard solutions was accurately pipetted, to which was added 90 µL of blank plasma, and vortexed to prepare plasma samples with plasma concentrations equivalent to 1, 3, 5, 10, 30, 100, 300, 1000, 3000 ng/mL. Duplicate samples were analyzed for each concentration to establish a standard curve. 30 µL aliquot of each plasma sample was used (samples from the 5, 15, and 30 min i.v. time points were diluted 5-fold prior to analysis). Then, 150 µL of acetonitrile containing the internal standard propranolol (50 ng/mL) was added. After vortexing, 100 µL of purified water was added, and the mixture was vortexed again, followed by centrifugation at 4000 rpm for 5 minutes. The supernatant was collected and analyzed by LC-MS.
The LC-MS analysis was performed under the following conditions: Chromatographic column: YMC Triart C18, 50×3.0mm, 2.1µm. Mobile phase: gradient elution with a mixture of water (containing 0.1% formic acid) and acetonitrile as described in the table below:
After the plasma concentration was determined by LC-MS, the pharmacokinetic parameters were calculated using WinNonlin 6.1 software with a non-compartmental model. Table 2 Pharmacokinetic results of the compounds of the present invention in rats

Each structure is given as a SMILES string. Where only a bound is given, the exact number is not on record here.

One may read the Ki as a dissociation constant, usually derived from enzyme kinetics or from competition with a known ligand. As usually defined, the Cmax is the highest concentration seen after dosing.

`CCC(=O)N[C@@H]1CCCc2c(-c3ccc4c(C#N)nccc4c3)cncc21`: at human CYP11B2, the Ki is < 50 nM. The Selectivity entry on human CYP11B1 is “B (B represents a selectivity value between 51 and 100)”. Further, in data set [1] (1 mg/kg, i.v), the AUClast stood at 9650 ng·h/mL, the Cmax is 3360 ng/mL and the T1/2 is on record as 3.06 h. In data set [1] (5 mg/kg, p.o), this compound returned an AUClast of 42600 ng·h/mL, a Cmax of 4620 ng/mL and a T1/2 of 2.57 h.
